This passage reports IC50 results from patent US12492182B2, “Hydroxytriazine compounds and pharmaceutical use thereof” (Japan Tobacco Inc., priority 2015, dated 2025).

Amino acid sequences for entries named in this document (tags omitted).
UniProt O14684, whole entry: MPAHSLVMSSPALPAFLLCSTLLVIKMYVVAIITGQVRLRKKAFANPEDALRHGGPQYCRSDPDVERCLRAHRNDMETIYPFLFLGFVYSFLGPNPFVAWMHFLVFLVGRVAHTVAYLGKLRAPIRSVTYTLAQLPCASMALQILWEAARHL

One experiment has as its system A549 cell. The experiment in a line: Evaluation of PGE2 production inhibitory action using A549 cell (IL-1β stimulated). The conditions noted are these: read-out: cell PGE2 production inhibitory activity (IC50 value), recombinant human IL-1β stimulation. The protocol:
Experimental Example 2: Evaluation of PGE2 Production Inhibitory Action Using A549 Cell
A549 cell (Japan Health Sciences Foundation Research Resources Bank), which is cell line derived from humans lung cancer, was suspended in assay medium (Ham's F-12K (Wako, #080-08565) containing 2% FBS (Hyclone Laboratories, #SH30910.03), 100 units/mL penicillin and 100 μg/mL streptomycin (Invitrogen, #15140-122)), the suspension was added at 2.5×10^4 cells/100 μL/well to 96 well flat-bottom plate (Corning, #353072), and the plate was left standing for 20 hr in a CO2 incubator set at 37° C. The test article was serially diluted with DMSO (Nacalai Tesque, #13407-45), and then 20-fold diluted with the assay medium to prepare a test article solution having a ten-fold concentration of the final concentration. The final DMSO concentration during the reaction was set to 0.5% (v/v). […] The supernatant was collected at 180 μL/well, and the PGE2 concentration was measured using Prostaglandin E2 assay (CISbio Bioassays, #62P2APEC) according to the manual. […] Using EnVision 2104 (Perkin Elmer), the time-resolved fluorescence at 620 nm and 665 nm relative to the excitation light at 337 nm was measured. […]
The PGE2 production inhibitory activity (%) of the test article was calculated according to the following Formula 3. […]

Another experiment has as its target human mPGES-1 (Homo sapiens, UniProt O14684). The experiment in a line: Evaluation of human mPGES-1 enzyme inhibitory activity (HTRF measurement of PGE2). Particulars: read-out: humans mPGES-1 enzyme inhibitory activity; IC50 value; microsome fraction of CHO-S cells expressing human mPGES-1, PGH2 substrate, PGE2 by HTRF. The protocol:
Experimental Example 1: Evaluation of Human mPGES-1 Enzyme Inhibitory Activity
The human mPGES-1 enzyme inhibitory activity of a test article was evaluated according to the report of Xu et al. (XU, D et al. MF63 [2-(6-chloro-1H-phenanthro[9,10-d]imidazol-2-yl)-isophthalonitrile], a selective microsomal prostaglandin E synthase-1 inhibitor relieves pyresis and pain in preclinical models of inflammation. J Pharmacol Exp Ther. September 2008, Vol. 326, No. 3, pages 754-763). The amount of PGE2 produced by human mPGES-1 in the presence of a test article was measured by the HTRF (homogeneous time resolved fluorescence) method, and the human mPGES-1 enzyme inhibitory activity of the test article was determined. […]
A DNA fragment containing human mPGES-1, which is added with a BamHI recognition cleavage sequence just before the translation initiation codon and an EcoRI recognition cleavage sequence just after the translation termination codon, was amplified by the PCR (Polymerase Chain Reaction) method using a human mPGES-1 expression plasmid DNA (pME-18S/iPGES-1) prepared in-house as a template. […] The base sequence of human mPGES-1 cloned to a vector was determined by the Dye Terminator method using BigDye Terminator v3.1 Cycle Sequencing Kit (Applied Biosystems, #4337455). […]
The protein concentration of the microsome fraction was measured by the Bradford method (Protein Assay Kit, Bio-Rad). […]

Turning to `CCC[C@H](C)Oc1ccc(-c2nc(O)nc(-c3cc(CNC(=O)[C@@](C)(OC)C(F)(F)F)ccc3Cl)n2)cn1`, the figures for the IC50 in the experiment on A549 cell and at human mPGES-1 were 4.9 nM and 5.4 nM, respectively.
Turning to `CCC[C@@H](C)Oc1ccc(-c2nc(O)nc(-c3cc(CNC(=O)C4(CF)CCCCCC4)ccc3Cl)n2)cn1`, the IC50 in the experiment on A549 cell worked out at 2.2 nM; on human mPGES-1, 5.7 nM.
